Target: His6-Flag-TEV-NLRP3 (134-1036) (Homo sapiens, UniProt Q96P20)
Assay: NLRP3 binding assay (fluorescence polarization, competition with probe NP3-301)
Details: read-out: FP Binding Assay IC50; competition with NP3-301 (0.5 nM) for binding to NLRP3 protein (30 nM)
Method: This experiment uses fluorescence polarization technology to detect and evaluate the binding assay.
The fluorescent probe used in this assay is the compound NP3-301 in the Journal of Molecular Biology (2021) 433, 167309, which was synthesized with reference to this literature.
His6-Flag-TEV-NLRP3 (134-1036) protein (SEQ NO.1) was purchased from Kaihuiruizhi Biotech (Shanghai) Co., Ltd. (ChemPartner), and was customed for expression.
Prepare 1× assay buffer: 50 mM Hepes, pH 7.4, 150 mM NaCl, 2.5 mM MgCl2, 0.005% Tween-20, 1 mM TCEP, 100 µM ATP.
First, 2.5 µL of 4× compound solution was added to a black shallow 384-well plate (Greiner, 784076), the shallow well plate was sealed, and centrifuged at 1000 rpm for 1 min; then 2× NLPR3 protein solution (final concentration of 30 nM) was added, the shallow well plate was sealed, centrifuged at 1000 rpm for 1 min, and incubated at room temperature for 60 min. Finally, 2.5 µL of 4× NP3-301 (final concentration of 0.5 nM) was added, the shallow well plate was sealed, centrifuged at 1000 rpm for 1 min, and incubated at room temperature for 30 min. Envision was used to read the fluorescence polarization values of λex = 485 ± 20 nm and λem = 535 ± 25 nm. […]

Chains of the proteins cited; added tags and fusions are not shown. Residues count along the entry.
UniProt Q96P20, 134-1036 limits assumed: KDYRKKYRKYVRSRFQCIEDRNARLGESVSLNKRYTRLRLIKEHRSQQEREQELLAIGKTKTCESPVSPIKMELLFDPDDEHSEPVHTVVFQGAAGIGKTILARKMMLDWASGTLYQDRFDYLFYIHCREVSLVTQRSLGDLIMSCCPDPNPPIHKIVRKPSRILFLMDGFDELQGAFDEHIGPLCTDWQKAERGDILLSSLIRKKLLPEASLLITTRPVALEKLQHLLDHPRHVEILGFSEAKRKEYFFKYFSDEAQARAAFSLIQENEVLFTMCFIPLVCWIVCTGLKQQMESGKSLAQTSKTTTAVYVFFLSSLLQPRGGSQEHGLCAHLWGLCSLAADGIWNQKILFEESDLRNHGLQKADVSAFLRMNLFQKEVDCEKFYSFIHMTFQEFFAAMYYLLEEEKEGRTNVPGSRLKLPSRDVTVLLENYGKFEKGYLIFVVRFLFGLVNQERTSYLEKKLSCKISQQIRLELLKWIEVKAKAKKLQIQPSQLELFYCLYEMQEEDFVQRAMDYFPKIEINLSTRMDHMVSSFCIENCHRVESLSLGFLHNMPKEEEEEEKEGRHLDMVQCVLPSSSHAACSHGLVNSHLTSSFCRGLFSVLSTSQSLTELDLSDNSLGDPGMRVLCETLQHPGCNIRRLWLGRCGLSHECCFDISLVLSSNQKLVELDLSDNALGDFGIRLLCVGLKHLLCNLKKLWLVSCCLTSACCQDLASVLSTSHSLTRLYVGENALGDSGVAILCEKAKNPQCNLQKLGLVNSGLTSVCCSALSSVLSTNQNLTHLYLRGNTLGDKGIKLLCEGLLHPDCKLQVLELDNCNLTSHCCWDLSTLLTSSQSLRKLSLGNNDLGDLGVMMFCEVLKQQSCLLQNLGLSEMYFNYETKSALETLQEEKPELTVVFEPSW

IC50 [nM]	SMILES
< 100	Cc1cc(C(F)(F)F)cc(O)c1-c1ccc2oc(NC[C@H]3COCCO3)nc2n1
100 to 500	Cc1cc(C(F)(F)F)cc(O)c1-c1ncc2cn(C3CCOCC3)nc2n1
